According to BindingDB's records for PubMed 2905001 (Mcneil Pharmaceutical, 1988):
Structures can show the parent of a compound that is named as a salt.

Sequences of proteins named here, by UniProt entry; tags and fusion partners are left off.
UniProt P14842, whole entry: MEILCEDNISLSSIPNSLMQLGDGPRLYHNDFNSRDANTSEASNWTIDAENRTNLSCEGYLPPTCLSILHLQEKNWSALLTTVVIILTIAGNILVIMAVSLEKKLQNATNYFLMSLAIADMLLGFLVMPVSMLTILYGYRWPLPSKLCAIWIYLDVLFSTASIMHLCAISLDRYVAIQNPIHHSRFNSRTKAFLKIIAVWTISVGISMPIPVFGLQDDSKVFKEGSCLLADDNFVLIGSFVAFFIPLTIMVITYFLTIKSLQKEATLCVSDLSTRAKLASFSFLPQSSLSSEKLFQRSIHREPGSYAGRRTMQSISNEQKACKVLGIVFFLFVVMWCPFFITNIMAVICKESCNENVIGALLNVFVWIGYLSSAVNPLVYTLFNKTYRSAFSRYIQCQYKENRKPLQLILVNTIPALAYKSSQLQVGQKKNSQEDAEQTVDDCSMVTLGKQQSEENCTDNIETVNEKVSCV

Target: 5-hydroxytryptamine receptor 2A (Rattus norvegicus, UniProt P14842)

Compound `CN(C)CCCC1(c2ccc(F)cc2)OCc2cc(C#N)ccc21` (stereo unspecified) [CITALOPRAM HYDROBROMIDE] has a Ki of 1000 nM.
